Reference: patent US11407788B2, “Prostate-specific membrane antigen (PSMA) targeting peptides” (THE CURATORS OF THE UNIVERSITY OF MISSOURI, priority 2016, dated 2022)

Test system: C4-2 xenograft tumor
Assay: Biodistribution study in mice bearing C4-2 xenografts
Type: in vivo, nude mice
Excerpt: The animal protocol was approved by the University of Missouri-Kansas City, Institutional Animal Care and Use Committee (IACUC). The C4-2 xenograft tumor model was developed by subcutaneous injection of 1×10^6 C4-2 cells with matrigel into each flank of BALB/c nude male mice aged 5-6 weeks. […] After two hours, the mice were sacrificed, and major organs including the tumors, liver, heart, spleen, lungs, kidneys, and muscle were harvested. Fluorescence intensity of these organs was examined using a Xenogen IVIS imaging system (Xenogen, Hopkinton, Mass.).
It has been reported that peptide achieves its highest uptake in tissues 2 h post-administration (Chen, x., et al., Cancer Res., 2004, 64(21):8009-8014), therefore the mice were sacrificed at 2 h post-administration and major organs harvested including the tumor, liver, kidneys, muscle, heart, lungs, and spleen. […] Uptake of the GTI peptide in other organs, such as the heart, lungs and muscle is negligible.

uptake in other major organs, such as the liver and spleen: either low or negligible
SMILES: CC[C@H](C)[C@H](NC(=O)[C@@H](NC(=O)CN)[C@@H](C)O)C(=O)N[C@@H](CCC(N)=O)C(=O)N1CCC[C@H]1C(=O)N[C@@H](Cc1ccc(O)cc1)C(=O)N1CCC[C@H]1C(=O)N[C@@H](Cc1ccccc1)C(=O)N[C@@H](CO)C(=O)N[C@@H](Cc1c[nH]c2ccccc12)C(=O)NCC(=O)N[C@@H](Cc1ccc(O)cc1)C(=O)O [GTI]
